Amino acid sequences for entries named in this document (tags omitted).
UniProt P11712, whole entry: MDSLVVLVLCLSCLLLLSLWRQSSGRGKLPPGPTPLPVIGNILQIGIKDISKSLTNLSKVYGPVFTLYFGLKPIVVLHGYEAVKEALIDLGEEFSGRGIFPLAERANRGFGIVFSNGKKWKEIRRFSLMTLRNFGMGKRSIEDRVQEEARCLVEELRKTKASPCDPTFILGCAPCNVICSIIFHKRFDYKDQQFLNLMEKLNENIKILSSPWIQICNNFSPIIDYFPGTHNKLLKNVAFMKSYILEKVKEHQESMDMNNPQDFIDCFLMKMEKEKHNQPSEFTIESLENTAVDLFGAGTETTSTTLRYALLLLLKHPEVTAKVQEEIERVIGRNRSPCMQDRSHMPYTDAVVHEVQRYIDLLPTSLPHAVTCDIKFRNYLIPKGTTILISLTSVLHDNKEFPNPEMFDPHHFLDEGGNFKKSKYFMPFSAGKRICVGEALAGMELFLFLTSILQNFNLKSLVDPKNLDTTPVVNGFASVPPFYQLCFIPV

According to ChEMBL document CHEMBL4052712, “Design and optimization of highly-selective, broad spectrum fungal CYP51 inhibitors” (Bioorg Med Chem Lett, 2017):

Experiments:
[1] = molecular target: Cytochrome P450 2C19, Homo sapiens (UniProt P33261); test: Inhibition of CYP2C19 in human hepatocyte microsomes using omeprazole substrate by HPLC/MS/MS method
Cytochrome P450 2C9 = Cytochrome P450 2C9 (Homo sapiens, UniProt P11712); test: Inhibition of CYP2C9 in human hepatocyte microsomes using diclofenac substrate by HPLC/MS/MS method; assay type: ADME

`OC(Cn1cncn1)(Cn1cncn1)c1ccc(F)cc1F` [FLUCONAZOLE] gave an IC50 [1] of 13 µM and an IC50 (Cytochrome P450 2C9) of 34 µM.
